Results as given in patent publication US5047413A (priority 1987, dated 1991).

Legend:
[1] = test system: guinea-pig urinary bladder muscle; settings: isolated guinea-pig urinary bladder muscle; barium chloride 0.2 mg/ml; relative to propiverine; FIG. 2
guinea pig taenia coli = settings: isolated guinea pig taenia coli, barium chloride 0.2 mg/ml
[2] = test system: guinea pig urinary bladder muscle; assay: neurotropic/spasmolytic effect on isolated guinea pig urinary bladder muscle (carbachol-induced contraction); settings: carbachol 10 μg/ml

Q: Which “myotropic/spasmolytic activity, factor weaker” value [1] does the source give for `CN1CCC(OC(=O)C(OC(=O)CCC(=O)O)(c2ccccc2)c2ccccc2)CC1` here?
A: 14

Q: What about the “myotropic/spasmolytic activity compared with propiverine (in words)” value (guinea pig taenia coli) of the same compound?
A: significantly lower myotropic/spasmolytic activity than propiverine

Q: And the “ED50 (myotropic/spasmolytic activity)” value (guinea pig taenia coli; Example 5, FIG. 3)?
A: 94 µg/mL (≈ 221 µM)

Q: What about the “neurotropic/spasmolytic activity (in words)” value [2] of the same compound?
A: pronounced, almost specific neurotropic/spasmolytic activity

Q: What about the “neurotropic/spasmolytic activity, factor higher than that of propiverine” value ([2]; FIG. 1, relative to propiverine) of the same compound?
A: 50

In brackets after ≈: the same amount, converted by molar mass.
